Where “and” joins values, the source holds several entries; their conditions need not be identical. Equal entries are not always repeated.
Molecular target: human FSH receptor (Homo sapiens, UniProt P23945)
Test: hFSHR CHO cAMP assay (rhFSHR-cLUC cells, FSH-stimulated cAMP, radioimmunoassay)
Conditions: read-out: EC50 hFSHR CHO cAMP; inhibition of cAMP produced by EC70 dose of FSH (4.85 nM); maximum concentration 50 μM
From the text: Minimum Essential Medium-Alpha (MEM-alpha), fetal bovine serum (FBS), penicillin, streptomycin, geneticin, trypsin-EDTA, Hanks' Balanced Salt Solution (no Calcium chloride, Magnesium chloride, Magnesium sulfate, or phenol red; Ca-Mg free HBSS) were purchased from Gibco BRL (Gaithersburg, Md.). The cells used for the FSH bioassay (rhFSHR-cLUC) were Chinese Hamster Ovary cells (K-1; ATCC) stably transformed with human FSH receptor (pSVK-FSHr) and a cAMP luciferase reporter gene (responsive CGα-180LUC). Follicle Stimulating Hormone (Metrodin; Fertinex) was purchased from Serono, Ltd. (Norwell, Mass.).
The rhFSHR-cLUC cell cultures were maintained in MEM-Alpha supplemented with 10% heat-inactivated FBS (HIFBS), 100 U/ml penicillin, 100 μg/mL streptomycin, and included 0.1 g/L geneticin for stable cell selection.
Forty-eight hours after the cells were plated in sterile 96-well culture plates (Corning, Corning, N.Y.) the spent media was removed and 50 μl assay media (modified growth media with 2% HIFBS) containing 2 mM IBMX (3-isobutyl-1-methyl-xanthine) was added to the cells. Compounds (25 μl) in the appropriate concentration were added followed 5 minutes later by an EC70 dose of FSH (25 μl; 160 ng/ml; 4.85 nM). After 10 minutes @ 22.5° C. (room temperature) the reaction was terminated by addition of 25 μL 0.5 N hydrochloric acid to each well. The amount of cAMP produced was measured by radioimmunoassay in a FlashPlate (DuPont, Boston, Mass.). To each flash plate 60 μL flash plate buffer was added followed by 40 μL acidified cell sample or cAMP standard, followed with the addition of 100 μl ^125l-cAMP trace. The FlashPlates were sealed, incubated overnight @ room temperature, and counted in a Packard TopCount (Packard Instrument Co., Meriden, Conn.). The cAMP radioimmunoassay results were calculated using DPM conversion and log-logit transformation of % binding (Excel program).
Test compounds were solubilized in 30% dimethyl sulfoxide (DMSO) at a concentration of 10 mM before diluting to appropriate concentrations in assay medium. The final DMSO concentration in the treated cells and in the control cells was 0.75%.
For individual experiments, a set of samples were tested including a vehicle control (assay buffer), a reference compound (hFSH) at a range of concentrations designed to elicit a minimal to maximal response, and several concentrations of test compounds together with an EC70 concentration of standard (hFSH challenge). Each compound was performed in duplicates for the primary evaluation and quadruplicates for the dose-ranging experiments. The cAMP radioimmunoassay raw data (pmol) were calculated to provide average pmol cAMP produced/ml and the percent inhibition was calculated as shown below.
% Inh=[1−(Avg.pmoltest compound+standard)/(Avg.pmolstandard)]×100
EC50 values were calculated from an analysis of the concentration-inhibition data using a linear analysis of the data transformed to a log-logit format.

Protein sequences, listed by entry. Tags and fused reporters are not part of them. Residues count along the entry.
UniProt P23945, 18-695 limits assumed: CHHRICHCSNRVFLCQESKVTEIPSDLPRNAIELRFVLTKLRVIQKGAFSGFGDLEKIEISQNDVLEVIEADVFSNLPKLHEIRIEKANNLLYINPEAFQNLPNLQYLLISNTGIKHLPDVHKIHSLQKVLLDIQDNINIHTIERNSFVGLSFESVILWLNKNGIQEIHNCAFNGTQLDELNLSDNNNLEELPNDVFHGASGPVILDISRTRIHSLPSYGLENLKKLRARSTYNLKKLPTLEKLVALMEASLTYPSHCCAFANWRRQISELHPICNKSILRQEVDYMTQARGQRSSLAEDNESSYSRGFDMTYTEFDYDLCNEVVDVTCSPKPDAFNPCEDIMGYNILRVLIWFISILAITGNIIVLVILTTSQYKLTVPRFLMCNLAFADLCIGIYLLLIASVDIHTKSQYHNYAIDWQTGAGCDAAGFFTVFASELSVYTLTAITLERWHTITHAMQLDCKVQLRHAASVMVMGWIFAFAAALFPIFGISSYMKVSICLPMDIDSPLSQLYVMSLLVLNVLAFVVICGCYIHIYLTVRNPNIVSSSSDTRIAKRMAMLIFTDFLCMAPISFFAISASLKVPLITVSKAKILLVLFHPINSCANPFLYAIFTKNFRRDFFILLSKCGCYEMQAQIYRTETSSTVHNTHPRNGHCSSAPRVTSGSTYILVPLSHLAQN

SMILES | EC50
C[C@H](CN(CC(=O)NCc1ccc(CN)cc1)S(=O)(=O)c1ccc(-c2ccccc2F)cc1)c1ccccc1 | 0.35 µM
COc1ccc(S(=O)(=O)N(CC(=O)NCc2ccc(CN)cc2)C[C@@H](C)c2ccccc2)cc1 | 0.41 µM
CC(C)c1ccc(S(=O)(=O)N(CC(=O)NCc2ccc(CN)cc2)C[C@@H](C)c2ccccc2)cc1 | 0.84 µM
NCCCCCCNC(=O)CN(CCc1ccc2c(c1)OCO2)S(=O)(=O)c1ccc(-c2ccccc2Cl)cc1 | 0.43 µM
COc1ccccc1CN(CC(=O)N1CCNCC1)S(=O)(=O)c1ccc(-c2cccc3ccccc23)cc1 | ≥ 50 µM
NCc1ccc(CNC(=O)CN(CC(c2ccccc2)c2ccccc2)S(=O)(=O)c2ccc(-c3ccccc3Cl)cc2)cc1 | ≥ 50 µM
COc1ccc(-c2ccc(S(=O)(=O)N(CC(=O)NCc3ccc(CN)cc3)C[C@H](C)c3ccccc3)cc2)c(OC)c1OC | 0.12 µM
CCOc1ccccc1CCN(CC(=O)NCc1ccc(CN)cc1)S(=O)(=O)c1ccc(-c2ccccc2Cl)cc1 | 0.23 µM
CCC(CN(CC(=O)NCCCCCCN)S(=O)(=O)c1ccc(-c2ccccc2Cl)cc1)c1ccccc1 (centres unmarked) | 0.14 µM
COc1ccccc1CCN(CC(=O)NCc1ccc(CN)cc1)S(=O)(=O)c1ccccc1-c1cccc2ccccc12 | 9.81 µM
COc1ccccc1CCN(CC(=O)NCc1ccc(CN)cc1)S(=O)(=O)c1ccc(-c2cccc(Cl)c2)s1 | 7.52 µM
COc1ccccc1CCN(CC(=O)NCc1ccc(CN)cc1)S(=O)(=O)c1ccc(-c2ccco2)s1 | 1.54 µM
COc1ccccc1CCN(CC(=O)N1CCNCC1)S(=O)(=O)c1ccc(-c2c(C)noc2C)cc1 | 12.5 µM
COc1ccccc1CCN(CC(=O)NCc1ccc(CN)cc1)S(=O)(=O)c1ccc(-c2ccc(C)cc2)s1 | 31.9 µM
CCCCCc1ccc(S(=O)(=O)N(CC(=O)NCc2ccc(CN)cc2)C[C@@H](C)c2ccccc2)cc1 | 1.38 µM
Cc1ccccc1-c1ccc(S(=O)(=O)N(CC(=O)NCCCCCCN)C[C@H](C)c2ccccc2)cc1 | 0.09 µM
NCCCCCCNC(=O)CN(CCc1ccccn1)S(=O)(=O)c1ccc(-c2ccccc2Cl)cc1 | 1.94 µM
CC(CN(CC(=O)NCc1ccc(CN)cc1)S(=O)(=O)c1ccc(-c2cccc(F)c2)cc1)c1ccc(Cl)cc1 (centres unmarked) | 0.96 µM
COc1ccc(OC)c(-c2cccc(S(=O)(=O)N(CCc3ccccc3OC)CC(=O)NCc3ccc(CN)cc3)c2)c1 | 3.43 µM
CN(C)c1ccccc1CCN(CC(=O)NCc1ccc(CN)cc1)S(=O)(=O)c1ccc(-c2ccccc2Cl)cc1 | 0.72 µM

SMILES | EC50
COc1ccccc1CCN(CC(=O)NCc1ccc(CN)cc1)S(=O)(=O)c1cccc(-c2ccc(Cl)cc2)c1 | 8.43 µM
COc1ccccc1CCN(CC(=O)N1CCNCC1)S(=O)(=O)c1ccc(-c2cccnc2)cc1 | 28.5 µM
C[C@H](CN(CC(=O)NCCCCCN)S(=O)(=O)c1ccc(-c2cccc(F)c2)cc1)c1ccccc1 | 2.9 µM
C[C@@H](CN(CC(=O)NCc1ccc(CN)cc1)S(=O)(=O)c1ccc(-c2cccc(Br)c2)cc1)c1ccccc1 | 0.7 µM
CC(C)c1ccc(S(=O)(=O)N(CC(=O)NCc2ccc(CN)cc2)C[C@H](C)c2ccccc2)cc1 | 1 µM
NCCCCCCNC(=O)CN(CCc1ccccc1C(F)(F)F)S(=O)(=O)c1ccc(-c2ccccc2Cl)cc1 | 3.18 µM
C[C@@H](CN(CC(=O)NCc1ccc(CN)cc1)S(=O)(=O)c1ccc(-c2ccncc2)cc1)c1ccccc1 | 0.9 µM
NCCCCCCNC(=O)CN(CC1Cc2ccccc21)S(=O)(=O)c1ccc(-c2ccccc2Cl)cc1 (centres unmarked) | 0.21 µM
COc1ccccc1CCN(CC(=O)NCc1ccc(CN)cc1)S(=O)(=O)c1ccc(OC)c(OC)c1 | ≥ 50 µM
Cc1ccccc1-c1ccc(S(=O)(=O)N(CC(=O)NCCCCCN)C[C@H](C)c2ccccc2)cc1 | 0.25 µM
COc1ccc(-c2ccc(S(=O)(=O)N(CCc3ccccc3OC)CC(=O)NCc3ccc(CN)cc3)s2)cc1 | 5.1 µM
COc1ccccc1CN(CC(=O)NCc1cccc(CN)c1)S(=O)(=O)c1ccc(-c2ccccc2C)cc1 | 2.24 µM
C[C@@H](CN(CC(=O)NCc1ccc(CN)cc1)S(=O)(=O)c1ccc(-c2cccc3c2sc2ccccc23)cc1)c1ccccc1 | > 50 µM
COc1ccccc1CCN(CC(=O)NCc1ccc(CN)cc1)S(=O)(=O)c1cccc(-c2ccc(F)cc2)c1 | 6.27 µM
NCc1ccc(CNC(=O)CN(CCc2ccc(Cl)cc2Cl)S(=O)(=O)c2ccc(-c3ccccc3Cl)cc2)cc1 | 0.59 µM
COc1ccccc1CCN(CC(=O)N1CCNCC1)S(=O)(=O)c1ccc(-c2ccc(F)cc2)cc1 | 10.7 µM
COc1ccccc1CCN(CC(=O)NCc1ccc(CN)cc1)S(=O)(=O)c1ccccc1-c1cccs1 | 1.2 µM
COc1ccccc1CCN(CC(=O)NCc1ccc(CN)cc1)S(=O)(=O)c1cccc(-c2ccc(C)cc2)c1 | 6.86 µM
COc1ccccc1CCN(CC(=O)NCc1ccc(CN)cc1)S(=O)(=O)c1ccccc1-c1ccccc1F | 3.76 µM
COc1ccccc1CN(CC(=O)N1CCNCC1)S(=O)(=O)c1ccc(-c2ccc(C)cc2)cc1 | ≥ 50 µM

SMILES | EC50
COc1ccccc1CCN(CC(=O)NCc1ccc(CN)cc1)S(=O)(=O)c1cccc(-c2ccccc2C)c1 | 2.88 µM
CC(CN(CC(=O)NCc1ccc(CN)cc1)S(=O)(=O)c1ccc(-c2ccccc2Cl)cc1)c1ccc(Cl)cc1 (centres unmarked) | 0.31 µM
Cc1cc(C)c(-c2ccc(S(=O)(=O)N(CC(=O)NCc3ccc(CN)cc3)C[C@H](C)c3ccccc3)cc2)c(C)c1 [305] | 0.58 µM
COc1cccc(CCN(CC(=O)NCc2ccc(CN)cc2)S(=O)(=O)c2ccc(-c3ccccc3Cl)cc2)c1 | 0.62 µM
COc1ccccc1CN(CC(=O)NCC1CCC(CN)CC1)S(=O)(=O)c1cccc(Cl)c1Cl (single isomer, unassigned) [402] | 5.36 µM
C[C@@H](CN(CC(=O)NCc1ccc(CN)cc1)S(=O)(=O)c1ccc(-c2ccccc2F)cc1)c1ccccc1 [451] | 0.29 µM and 0.52 µM
COc1ccccc1CCN(CC(=O)NCc1ccc(CN)cc1)S(=O)(=O)c1ccccc1-c1ccccc1C(F)(F)F | 3.51 µM
COc1ccccc1CCN(CC(=O)NCc1ccc(CN)cc1)S(=O)(=O)c1ccc(-c2ccccc2C(F)(F)F)s1 | 2.22 µM
COc1ccccc1CCN(CC(=O)NCc1ccc(CN)cc1)S(=O)(=O)c1ccc(-c2ccc(C#N)cc2)s1 | 0.67 µM
C[C@H](CN(CC(=O)NCC1CCC(CN)CC1)S(=O)(=O)c1ccc(-c2ccccc2Cl)cc1)c1ccccc1 (some centres unmarked) | 0.17 µM
Cc1csc(-c2ccc(S(=O)(=O)N(CC(=O)NCc3ccc(CN)cc3)C[C@H](C)c3ccccc3)cc2)c1 | 1.89 µM
COc1ccccc1CCN(CC(=O)NCc1ccc(CN)cc1)S(=O)(=O)c1ccc(-c2cccnc2)s1 | 7.63 µM
COc1ccccc1CCN(CC(=O)N1CCNCC1)S(=O)(=O)c1ccc(-c2cccs2)cc1 | 37.9 µM
COc1ccccc1CCN(CC(=O)NCc1ccc(CN)cc1)S(=O)(=O)c1cccc(-c2c(C)noc2C)c1 | 5.65 µM
COc1ccccc1CCN(CC(=O)NCc1ccc(CN)cc1)S(=O)(=O)c1ccc(-c2ccccc2)s1 | 19.5 µM
COc1ccccc1CN(CC(=O)N1CCNCC1)S(=O)(=O)c1ccc(-c2ccc(Cl)cc2)cc1 | ≥ 50 µM
COc1ccccc1CCN(CC(=O)NCc1ccc(CN)cc1)S(=O)(=O)c1ccccc1-c1c(C)noc1C | 8.9 µM
COc1ccccc1CN(CC(=O)NCCCCCCN)S(=O)(=O)c1ccc(-c2ccc(Cl)cc2Cl)cc1 | 0.36 µM
CCCc1ccc(S(=O)(=O)N(CC(=O)NCc2ccc(CN)cc2)C[C@H](C)c2ccccc2)cc1 | 0.24 µM

From patent US6583179B2, “Substituted aminoalkylamide derivatives as antagonists of follicle stimulating hormone” (Ortho-McNeil Pharmaceutical, Inc., priority 1999, dated 2003)
